Earlier results in US11311631B2, “Paclitaxel-albumin-binding agent compositions and methods for using and making the same” (Mayo Foundation for Medical Education and Research, priority 2016, dated 2022).

System: cells, including cancer cells and normal cells
Conditions: attributed to breaking of the C-4,C-5 oxetane ring; no test described by the applicant; cited from earlier work

Substance: 20-Acetoxy-4-deactyl-5-epi-20, O-secotaxol [Meerwein Product of Paclitaxel]
- toxicity compared to paclitaxel: significantly reduced toxicity
